This assay has as its target T1, MOR (mu-opioid receptor) (Rattus norvegicus, UniProt P33535).
T1 construct: gene Oprm1; native full-length receptor in rat brain membrane homogenate
Type of assay: binding. Conditions: read-out: MOR^a / Ki ± S.E.M.

Sequences of proteins named here, by UniProt entry; tags and fusion partners are left off.
UniProt P33535, whole entry: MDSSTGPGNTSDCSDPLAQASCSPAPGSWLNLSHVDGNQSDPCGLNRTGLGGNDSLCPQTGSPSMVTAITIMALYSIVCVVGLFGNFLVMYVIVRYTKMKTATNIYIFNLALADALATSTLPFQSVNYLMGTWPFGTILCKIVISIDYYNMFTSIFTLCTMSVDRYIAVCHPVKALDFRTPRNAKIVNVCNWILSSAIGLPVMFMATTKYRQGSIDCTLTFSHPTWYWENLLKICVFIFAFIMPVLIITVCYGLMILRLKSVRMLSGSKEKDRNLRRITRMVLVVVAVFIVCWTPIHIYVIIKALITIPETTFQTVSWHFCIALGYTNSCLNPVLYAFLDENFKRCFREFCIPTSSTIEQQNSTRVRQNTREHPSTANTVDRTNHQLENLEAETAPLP

For the compound `C[C@@H](NC(=O)[C@@H](N)Cc1ccc(O)cc1)C(=O)NCC(=O)N(C)[C@@H](Cc1ccccc1)C(=O)NCCO` [DAMGO], the Ki came out at 2.7 ± 1.1 nM.
